Earlier results on one molecule are cited in patent publication US5166066A (priority 1991, dated 1992).

This data set deals with α1 - and β1 -subunits of the bovine brain GABAA receptor. The settings on record: CHO cells, dexamethasone-inducible promoter; cited from earlier work.

Each structure is given as a SMILES string.

Consider `CCCC(C)C1(CC)C(=O)NC(=O)NC1=O` (stereo not shown) [pentobarbitone], for which the “effect on current response of α1β1 GABAA receptors” value is on record as “potentiated”.
